Test results published in publication PMC4657098, “A Review of the Updated Pharmacophore for the Alpha 5 GABA(A) Benzodiazepine Receptor Model” (International Journal of Medicinal Chemistry, 2015).

The chains behind the UniProt entries cited, without tags or fusion partners. Residues count along the entry.
UniProt P48169, 36-554 limits assumed: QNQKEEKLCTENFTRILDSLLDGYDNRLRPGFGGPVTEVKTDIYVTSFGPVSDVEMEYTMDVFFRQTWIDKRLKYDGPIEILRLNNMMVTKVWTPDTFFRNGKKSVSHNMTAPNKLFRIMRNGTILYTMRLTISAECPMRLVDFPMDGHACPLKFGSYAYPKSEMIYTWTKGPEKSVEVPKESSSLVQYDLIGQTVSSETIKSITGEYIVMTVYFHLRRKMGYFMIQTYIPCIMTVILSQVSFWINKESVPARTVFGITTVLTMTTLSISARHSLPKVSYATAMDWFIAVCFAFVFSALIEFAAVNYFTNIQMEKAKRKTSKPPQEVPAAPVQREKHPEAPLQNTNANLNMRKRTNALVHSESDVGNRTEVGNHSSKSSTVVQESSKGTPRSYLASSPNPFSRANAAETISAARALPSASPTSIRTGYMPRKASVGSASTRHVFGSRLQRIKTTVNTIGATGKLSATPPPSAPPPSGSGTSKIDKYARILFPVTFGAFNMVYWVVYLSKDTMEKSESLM

Assays:
α1β3γ2 GABAA/BzR = α1β3γ2 GABAA/BzR (Homo sapiens, UniProt P14867+P18507); assay: Competition binding to HEK cell membranes, α1β3γ2; conditions: read-out: Ki α1
α5β3γ2 GABAA/BzR = α5β3γ2 GABAA/BzR (Homo sapiens, UniProt P18507+P31644); assay: Competition binding to HEK cell membranes, α5β3γ2; conditions: read-out: Ki α5
α3β3γ2 GABAA/BzR = α3β3γ2 GABAA/BzR (Homo sapiens, UniProt P18507+P34903); assay: Competition binding to HEK cell membranes, α3β3γ2; conditions: read-out: Ki α3
α2β3γ2 GABAA/BzR = α2β3γ2 GABAA/BzR (Homo sapiens, UniProt P18507+P47869); assay: Competition binding to HEK cell membranes, α2β3γ2; conditions: read-out: Ki α2
α6β3γ2 GABAA/BzR = α6β3γ2 GABAA/BzR (Homo sapiens, UniProt P18507+Q16445); assay: Competition binding to HEK cell membranes, α6β3γ2; conditions: read-out: Ki α6
α4β3γ2 GABAA/BzR = α4β3γ2 GABAA/BzR (Homo sapiens, UniProt P18507+P48169); conditions: read-out: Ki α4

Row | Structure (SMILES) | Ki (α1β3γ2 GABAA/BzR) | Ki (α5β3γ2 GABAA/BzR) | Ki (α3β3γ2 GABAA/BzR) | Ki (α2β3γ2 GABAA/BzR) | Ki (α6β3γ2 GABAA/BzR) | Ki (α4β3γ2 GABAA/BzR)
1 | C[C@@H]1N=C(c2ccccc2F)c2cc(Br)ccc2NC1=O | 0.774 nM | 0.11 nM | 0.383 nM | 0.172 nM |  | 
2 | CC(C)(C)C#Cc1ccc(-n2nc3c4ccccc4[nH]cc-3c2=O)cc1 | 9 nM | 90 nM | 39 nM | 60 nM | 1000 nM | 3230 nM
3 | C[Si](C)(C)C#Cc1ccc(-n2nc3c4ccccc4[nH]cc-3c2=O)cc1 | 3 nM |  |  |  | 1000 nM | 
4 | C#Cc1ccc2c(c1)C(=O)N(C)Cc1c(C(=O)OCCOCCOC(=O)c3ncn4c3CN(C)C(=O)c3cc(C#C)ccc3-4)ncn1-2 | 828 nM | 13.9 nM |  | 690 nM |  | 
5 | C#Cc1ccc2c(c1)C(c1ccccc1Cl)=NCc1nnc(C)n1-2 |  |  |  |  | 5000 nM | 
6 | CCOC(=O)c1ncn2c1CN(C)C(=O)c1cc(Br)ccc1-2 | 26 nM | 0.7 nM |  |  |  | 
7 | CCOC(=O)c1ncn2c1CN(C)C(=O)c1cc(C#N)ccc1-2 |  |  |  |  | 1000 nM | 
8 | CCOC(=O)c1ncn2c1CN(C)C(=O)c1ccccc1-2 |  |  |  |  | 500 nM | 219 nM
9 | CN1Cc2c(C(=O)OC(C)(C)C)ncn2-c2ccc(N=C=S)cc2C1=O |  |  |  |  | 31.7 nM | 
10 | CCOC(=O)c1ncc2[nH]c3ccc(O)cc3c2c1COC | 2 nM |  |  | 5.4 nM | 3000 nM | 
11 | O=C(OCC(F)(F)F)c1cc2c(cn1)[nH]c1ccccc12 [MMB-II-74] | 0.88 nM | 549 nM | 25.6 nM | 36 nM | 15.3 nM | 
12 | CCOC(=O)c1ncn2c1CN(C)C(=O)c1cc(-c3ccco3)ccc1-2 | 1.1 nM | 0.6 nM | 5.3 nM | 5.3 nM | 15 nM | 2.8 nM
13 | CC=Cc1ccc2c(c1)C(=O)N(C)Cc1c(C(=O)OCC)ncn1-2 (single isomer, unassigned) [XHE-II-073A] | 5.9 nM | 1.18 nM | 10 nM | 11 nM | 140 nM | 15 nM
14 | C#Cc1ccc2c(c1)C(c1ccccc1)=NCC(=O)N2C |  |  |  |  | 3000 nM | 2000 nM
15 | CC(C)(C)OC(=O)c1cc2c(cn1)[nH]c1ccc(I)cc12 | 2.72 nM | 562 nM | 23.1 nM | 22.2 nM | 122 nM | 
16 | CC[C@@H](OC(=O)c1ncn2c1[C@@H]1CCCN1C(=O)c1cc(Br)ccc1-2)C(F)(F)F | 176 nM | 14 nM | 244 nM | 752 nM | 141 nM | 290 nM
17 | C#Cc1ccc2c(c1)C(c1ccccc1)=NCc1c(C(=O)O)ncn1-2 | 50.4 nM | 5.9 nM | 44 nM | 11.8 nM |  | 
18 | CCOC(=O)c1ncn2c1CN(C)C(=O)c1cc(OC)ccc1-2 | 4.86 nM | 0.55 nM | 8.5 nM | 13 nM | 40 nM | 
19 | CCOC(=O)c1ncn2c1CN=C(c1ccccc1)c1cc(CC)ccc1-2 | 1 nM |  |  |  |  | 
20 | C#Cc1ccc2c(c1)C(c1ccccc1)=NC(C)c1nnc(C)n1-2 (centres unmarked) |  | 8.07 nM | 20.9 nM |  |  | 
21 | Fc1ccccc1C1=NCc2c(-c3cnco3)ncn2-c2ccc(Br)cc21 | 11.1 nM | 0.24 nM | 13.8 nM | 4.87 nM |  | 
22 | C#Cc1ccc2c(c1)C(c1ccccc1)=NCc1c(C(=O)NC)ncn1-2 | 36.4 nM | 7.59 nM | 130 nM | 67.8 nM |  | 
23 | CCOC(=O)c1ncn2c1[C@@H]1CCCN1C(=O)c1cc(OC)ccc1-2 | 60.2 nM | 0.295 nM | 4.56 nM | 24.1 nM |  | 
24 | CC(C)(C)OC(=O)c1ncn2c1CN=C(c1ccccc1)c1cc(Br)ccc1-2 | 14 nM | 10 nM | 18 nM | 8.7 nM | 2000 nM | 1000 nM
25 | C#Cc1ccc2c(c1)C(c1ccccc1F)=NCc1c(C(=O)N3CCN(C(=O)c4ncn5c4CN=C(c4ccccc4F)c4cc(C#C)ccc4-5)CC3)ncn1-2 | 296 nM | 103 nM | 10.8 nM | 15 nM |  | 
26 | CCOC(=O)c1ncn2c1[C@@H]1CCCN1C(=O)c1ccccc1-2 |  |  |  |  | 311 nM | 880 nM

Row | Structure (SMILES) | Ki (α1β3γ2 GABAA/BzR) | Ki (α5β3γ2 GABAA/BzR) | Ki (α3β3γ2 GABAA/BzR) | Ki (α2β3γ2 GABAA/BzR) | Ki (α6β3γ2 GABAA/BzR) | Ki (α4β3γ2 GABAA/BzR)
27 | C[Si](C)(C)C#Cc1ccc2c3nn(-c4ccccc4)c(=O)c-3c[nH]c2c1 | 1.7 nM | 6.1 nM | 1.6 nM | 1.8 nM | 100 nM | 
28 | CN1C(=O)CN=C(c2ccccc2)c2cc(Br)ccc21 |  |  |  |  | 3000 nM | 
29 | CCOC(=O)c1ncn2c1CN=C(c1ccccc1)c1cc(Br)ccc1-2 | 49 nM | 14 nM | 31 nM | 24 nM | 2040 nM | 1040 nM
30 | C#Cc1ccc2c(c1)C(c1ccccc1)=NCc1nnc(C)n1-2 |  | 5.29 nM |  |  |  | 
31 | CC(C)(C)OC(=O)c1cc2c3cc(C#C[Si](C)(C)C)ccc3n(C(=O)OC(C)(C)C)c2cn1 |  |  | 0.89 nM |  |  | 
32 | CCOC(=O)c1cc2c(cn1)[nH]c1ccc(OCc3ccccc3)cc12 | 7.2 nM |  | 284 nM | 168 nM | 10000 nM | 
33 | CC=Cc1ccc2c(c1)C(=O)N(C)Cc1c(C(=O)OCC)ncn1-2 (single isomer, unassigned) [XHE-II-073B] | 11 nM | 2.1 nM | 12 nM | 17 nM | 269 nM | 33 nM
34 | CC#Cc1ccc2c(c1)C(=O)N(C)Cc1c(C(=O)OCC)ncn1-2 |  |  |  |  | 100 nM | 
35 | C#Cc1ccc2c(c1)C(c1ccccc1F)=NCc1c(C(=O)OCCCOC(=O)c3ncn4c3CN=C(c3ccccc3F)c3cc(C#C)ccc3-4)ncn1-2 | 32.5 nM | 103 nM | 2.35 nM | 1.26 nM |  | 
36 | CCc1ccc2c(c1)C(=O)N(C)Cc1c(C(=O)OC(C)C)ncn1-2 |  |  |  | 56 nM |  | 
37 | CC(C)(C)c1ccc2[nH]cc3c(=O)n(-c4ccc(Cl)cc4)nc-3c2c1 | 3.7 nM | 144 nM | 12 nM | 15 nM | 1000 nM | 1900 nM
38 | CCOC(=O)c1ncn2c1CN(C)C(=O)c1cc(-c3ccccc3)ccc1-2 | 7 nM | 2.3 nM | 26 nM | 41 nM | 191 nM | 15 nM
39 | CCOC(=O)c1ncn2c1CN(C)C(=O)c1c(Cl)cccc1-2 | 1.3 nM | 11.3 nM | 4.2 nM | 5.5 nM | 85.1 nM | 38.7 nM
40 | CC(C)(C)OC(=O)c1cc2c(cn1)[nH]c1ccccc12 [BCCt] | 1.09 nM | 69.8 nM | 12.3 nM | 5.44 nM | 21.2 nM | 
41 | CN1C(=O)CN=C(c2ccccc2Cl)c2cc(C#C[Si](C)(C)C)ccc21 | 1.51 nM | 1.99 nM |  | 0.967 nM |  | 
42 | Cc1nnc2n1-c1ccc(C#C[Si](C)(C)C)cc1C(c1ccccc1)=NC2 | 222 nM | 15.5 nM |  | 154 nM |  | 
43 | CCOC(=O)c1ncn2c1CN(C)C(=O)c1cc(-c3cccs3)ccc1-2 | 1.6 nM | 1.4 nM | 24 nM | 34 nM | 23 nM | 5.6 nM
44 | CC(C)(C)c1ccc2[nH]cc3c(=O)n(-c4ccc(Br)cc4)nc-3c2c1 | 4.7 nM | 89 nM | 20 nM | 4.4 nM | 3530 nM | 1880 nM
45 | C#Cc1ccc2c(c1)C(c1ccccc1Cl)=NCC(=O)N2 | 1.22 nM | 2.9 nM |  | 1.19 nM |  | 
46 | CCOC(=O)c1ncn2c1CN=C(c1ccccc1F)c1cc(Br)ccc1-2 [JYI-32] | 21.5 nM | 4.06 nM | 2.15 nM | 11 nM |  | 
47 | O=c1c2c[nH]c3cc(Br)ccc3c-2nn1-c1ccccc1 [QH-II-077] | 0.06 nM |  | 0.05 nM | 0.08 nM | 4 nM | 
48 | CCOC(=O)c1ncn2c1C(C)N=C(c1ccccc1F)c1cc(Br)ccc1-2 (centres unmarked) | 1710 nM | 1520 nM | 1220 nM | 17.5 nM |  | 
49 | C#Cc1ccc2c(c1)C(=O)N(C)Cc1c(CCl)ncn1-2 | 620 nM | 7.05 nM | 3640 nM | 286 nM |  | 
50 | C#Cc1ccc2c(c1)C(c1ccccc1)=NCC(=O)N2 | 66 nM | 9 nM | 43 nM | 41 nM | 3000 nM | 3000 nM
51 | CN1Cc2c(C(=O)OC(C)(C)C)ncn2-c2ccc(Br)cc2C1=O | 11.2 nM |  |  |  |  | 
